Data taken from PMC9102066, “Cloning and Functional Characterization of Dog OCT1 and OCT2: Another Step in Exploring Species Differences in Organic Cation Transporters” (International Journal of Molecular Sciences, 2022).
Structures can show the parent of a compound that is named as a salt.

Experiments:
[1] = tested on: dog OCT1; test: Uptake in HEK293 cells stably overexpressing dog OCT1; details: for difference in transport between dog and mouse OCT1, in words: dog OCT1 versus mouse OCT1
[2] = target: T1, mouse OCT1 (Mus musculus, UniProt O08966); test: Uptake in HEK293 cells stably overexpressing mouse OCT1; assay type: in vitro ADME; details: OCT1-mediated uptake, HEK293, 2 min, 37 °C, pH 7.4, control cells subtracted
T1 construct: expressed in transfected cells; host or cells: HEK293 (Flp-In system)
T1 sequence (O08966 1-556): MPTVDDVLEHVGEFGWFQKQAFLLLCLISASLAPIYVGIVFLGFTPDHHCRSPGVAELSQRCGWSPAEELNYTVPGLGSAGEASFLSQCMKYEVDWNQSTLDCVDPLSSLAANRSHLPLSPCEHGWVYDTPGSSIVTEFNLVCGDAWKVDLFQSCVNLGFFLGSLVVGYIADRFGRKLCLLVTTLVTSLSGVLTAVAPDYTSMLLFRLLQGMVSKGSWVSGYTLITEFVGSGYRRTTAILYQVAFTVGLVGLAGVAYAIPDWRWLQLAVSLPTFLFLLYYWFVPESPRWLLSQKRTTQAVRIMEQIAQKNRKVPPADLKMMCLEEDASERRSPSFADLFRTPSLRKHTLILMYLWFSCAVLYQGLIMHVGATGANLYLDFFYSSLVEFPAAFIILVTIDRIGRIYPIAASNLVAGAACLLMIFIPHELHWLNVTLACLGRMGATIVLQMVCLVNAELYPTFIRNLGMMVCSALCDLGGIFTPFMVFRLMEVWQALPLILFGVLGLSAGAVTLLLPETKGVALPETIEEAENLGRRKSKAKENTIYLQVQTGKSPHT

[3] = tested on: dog OCT2; test: Uptake in HEK293 cells stably overexpressing dog OCT2; assay type: in vitro ADME
[4] = target: T2, human OCT2 (Homo sapiens, UniProt O15244); test: Uptake in HEK293 cells stably overexpressing human OCT2; assay type: in vitro ADME; details: OCT2-mediated uptake, HEK293, 2 min, 37 °C, pH 7.4, control cells subtracted
T2 construct: expressed in transfected cells; host or cells: HEK293 (Flp-In system)
T2 sequence (O15244 1-555): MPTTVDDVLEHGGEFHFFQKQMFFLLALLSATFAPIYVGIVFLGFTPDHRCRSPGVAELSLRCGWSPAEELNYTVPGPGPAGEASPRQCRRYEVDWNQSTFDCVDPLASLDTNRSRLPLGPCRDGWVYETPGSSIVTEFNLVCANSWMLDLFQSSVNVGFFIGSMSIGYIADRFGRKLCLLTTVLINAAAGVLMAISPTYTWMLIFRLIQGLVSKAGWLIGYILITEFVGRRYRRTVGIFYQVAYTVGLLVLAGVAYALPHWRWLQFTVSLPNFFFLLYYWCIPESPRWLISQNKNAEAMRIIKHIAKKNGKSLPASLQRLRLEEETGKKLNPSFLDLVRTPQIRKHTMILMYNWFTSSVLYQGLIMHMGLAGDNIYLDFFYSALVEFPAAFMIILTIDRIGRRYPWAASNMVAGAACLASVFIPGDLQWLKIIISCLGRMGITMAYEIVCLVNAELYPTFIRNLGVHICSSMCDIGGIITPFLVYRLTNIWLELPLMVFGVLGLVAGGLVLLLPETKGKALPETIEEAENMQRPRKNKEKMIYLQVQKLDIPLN

[5] = target: T3, human OCT1 (Homo sapiens, UniProt O15245); test: Uptake in HEK293 cells stably overexpressing human OCT1; assay type: in vitro ADME
T3 construct: expressed in transfected cells; host or cells: HEK293 (Flp-In system)
T3 sequence (O15245 1-554): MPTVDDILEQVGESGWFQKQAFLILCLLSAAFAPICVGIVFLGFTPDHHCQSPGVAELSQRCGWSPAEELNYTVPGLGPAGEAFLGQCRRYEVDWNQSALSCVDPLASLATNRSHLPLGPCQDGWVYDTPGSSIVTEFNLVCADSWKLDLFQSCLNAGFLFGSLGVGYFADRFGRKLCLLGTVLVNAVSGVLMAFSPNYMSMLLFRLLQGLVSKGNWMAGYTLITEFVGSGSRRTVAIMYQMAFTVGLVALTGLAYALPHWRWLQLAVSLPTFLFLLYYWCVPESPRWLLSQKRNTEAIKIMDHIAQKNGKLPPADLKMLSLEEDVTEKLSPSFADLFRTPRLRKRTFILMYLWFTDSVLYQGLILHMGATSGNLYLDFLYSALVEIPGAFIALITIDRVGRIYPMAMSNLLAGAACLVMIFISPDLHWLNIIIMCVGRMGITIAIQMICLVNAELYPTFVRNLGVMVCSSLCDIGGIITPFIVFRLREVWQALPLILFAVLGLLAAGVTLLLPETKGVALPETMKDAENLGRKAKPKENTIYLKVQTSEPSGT

[6] = estimated from differences measured in vitro; cited from earlier work
[7] = OCT1-mediated uptake, HEK293, 2 min, 37 °C, pH 7.4, control cells subtracted

CC(Cc1ccc(O)cc1)NCC(O)c1cc(O)cc(O)c1 (stereo not shown) [Fenoterol, Fenoterol hydrochloride]
vmax ± SEM, dOCT1 [1, 7]: 1346 ± 134 pmol × min^−1 × mg Protein^−1 | fold higher transport capacity (vmax) by dog OCT1 than human OCT1 ([1]; dog OCT1 versus human OCT1): 12.9 fold | difference in transport between dog and mouse OCT1, in words [1]: did not differ substantially | vmax ± SEM, mOCT1 [2]: 912 ± 78.3 pmol × min^−1 × mg Protein^−1 | fold lower transport by dog OCT2 compared to human OCT2 ([3]; dog OCT2 versus human OCT2): 10 fold | uptake by dog OCT2 cells compared to control cells, in words ([3]; especially at low concentrations, data could not be fitted to the Michaelis–Menten equation): only a slight increase | vmax ± SEM, hOCT2 [4]: 248 ± 21.7 pmol × min^−1 × mg Protein^−1 | vmax ± SEM, hOCT1 [5, 7]: 106 ± 11.8 pmol × min^−1 × mg Protein^−1 | fold lower transport capacity (human OCT1 relative to dog OCT1, as worded in the discussion) ([5]; discussion wording, direction not spelled out): 12.9 fold

CN(C)C(=N)N=C(N)N [Metformin, metformin hydrochloride]
fold higher affinity by dog OCT1 than human OCT1 ([1]; dog OCT1 versus human OCT1): 5.5 fold | difference in transport between dog and mouse OCT1, in words [1]: did not differ substantially | estimated concentration in mouse liver, fold higher than in human liver [6]: up to 11 fold | CLint ± SEM, hOCT1 ([5]; intrinsic clearance = vmax divided by KM for each experiment): 11.0 ± 2.05 µL × min^−1 × mg Protein^−1
